# Laboratory results as given in PMC7723054.
# Some of the results follow.
# T1: LIN28A (human?, UniProt Q9H9Z2 1-209)
# T1 sequence: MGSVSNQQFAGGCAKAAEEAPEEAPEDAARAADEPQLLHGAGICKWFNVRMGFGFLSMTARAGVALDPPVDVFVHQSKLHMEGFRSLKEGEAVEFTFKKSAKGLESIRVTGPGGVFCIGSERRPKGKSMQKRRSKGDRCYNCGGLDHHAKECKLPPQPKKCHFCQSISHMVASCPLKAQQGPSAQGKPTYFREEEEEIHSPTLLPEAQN
# T2: CIRBP (Homo sapiens, UniProt Q14011 1-172)
# T2 sequence: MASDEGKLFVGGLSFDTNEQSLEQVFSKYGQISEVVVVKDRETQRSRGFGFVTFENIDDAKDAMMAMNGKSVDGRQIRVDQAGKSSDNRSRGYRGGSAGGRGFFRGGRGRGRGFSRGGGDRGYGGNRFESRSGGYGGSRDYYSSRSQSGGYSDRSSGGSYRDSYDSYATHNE
# T3: DHX36 (Homo sapiens, UniProt Q9H2U1 1-1008)
# T3 sequence: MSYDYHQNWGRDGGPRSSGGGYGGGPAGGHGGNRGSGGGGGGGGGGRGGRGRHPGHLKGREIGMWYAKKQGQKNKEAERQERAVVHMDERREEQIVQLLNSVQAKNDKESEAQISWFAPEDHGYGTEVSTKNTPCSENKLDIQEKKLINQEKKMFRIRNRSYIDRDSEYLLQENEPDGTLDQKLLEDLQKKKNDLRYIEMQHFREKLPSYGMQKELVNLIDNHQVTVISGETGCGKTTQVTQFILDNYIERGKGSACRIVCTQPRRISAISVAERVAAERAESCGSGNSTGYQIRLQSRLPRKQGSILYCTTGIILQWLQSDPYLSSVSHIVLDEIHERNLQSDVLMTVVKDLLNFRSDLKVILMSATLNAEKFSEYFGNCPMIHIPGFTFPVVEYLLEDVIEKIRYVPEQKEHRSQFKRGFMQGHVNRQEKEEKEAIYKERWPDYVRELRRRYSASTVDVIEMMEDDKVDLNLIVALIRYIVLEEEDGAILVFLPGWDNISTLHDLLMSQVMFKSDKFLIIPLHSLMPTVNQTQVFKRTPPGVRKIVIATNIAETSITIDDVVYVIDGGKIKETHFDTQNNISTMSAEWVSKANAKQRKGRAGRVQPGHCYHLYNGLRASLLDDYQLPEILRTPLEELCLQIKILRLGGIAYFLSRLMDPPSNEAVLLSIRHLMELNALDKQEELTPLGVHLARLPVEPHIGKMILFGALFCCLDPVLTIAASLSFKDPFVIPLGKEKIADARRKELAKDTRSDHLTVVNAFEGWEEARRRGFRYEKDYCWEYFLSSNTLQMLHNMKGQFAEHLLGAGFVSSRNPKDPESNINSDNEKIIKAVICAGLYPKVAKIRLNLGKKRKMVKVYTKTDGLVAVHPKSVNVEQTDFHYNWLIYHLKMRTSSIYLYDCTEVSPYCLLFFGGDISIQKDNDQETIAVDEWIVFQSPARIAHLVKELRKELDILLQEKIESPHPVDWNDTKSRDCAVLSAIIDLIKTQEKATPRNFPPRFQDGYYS
# B1: hsa-mir-548n (structured_RNA)
# RNA: GGGAAUAAGCUGCGCCCUGUCCGAAUGUGGUGUACGAAGUUUCAGCUUGUCGUUAAAAAUAGCAAGCUGAAGCUUCGUGCAC
# B2: hsa-mir-6858 (structured_RNA)
# RNA: GGGAACGAGGAAAAUCCCCAAUCGGCAUGGUGUACGAAGUUUCAGCGCAGGGACCCCUCCAAGUUGGGGACGGCAGCGCUGAAGCUUCGUGCAC
# B3: hsa-mir-7114 (structured_RNA)
# RNA: GGGAAUUCGGUGAACGCAAGCUCAGCCUGGUGUACGAAGUUUCAGCCUGUCCCCUGCCACUGGGUGACCGCUGAAGCUUCGUGCAC
# B4: hsa-mir-7849 (structured_RNA)
# RNA: GGGAACGUCCACUACGGGUCGAAUCGUUGGUGUACGAAGUUUCAGCUGACUACUUCGAAAAUGGGAAGUAGACAGCUGAAGCUUCGUGCAC
# B5: hsa-mir-4533 (structured_RNA)
# RNA: GGGAUCGUAGCGGACGUGCGACAUUUUCGGUGUACGAAGUUUCAGCCGCUGCUGGCUGCCUUCCAGCGGCUGAAGCUUCGUGCAC
# B6: hsa-mir-4776-1 (structured_RNA)
# RNA: GGGAAUAAGGUAGACUCACCCCAAGAUCGGUGUACGAAGUUUCAGCCAAGGGCUCUCCUGAAAGGACAGUAGAGCCCUUGGCUGAAGCUUCGUGCAC
# B7: hsa-mir-921 (structured_RNA)
# RNA: GGGAGCCUACAACAAGGUUUGGUCAACAGGUGUACGAAGUUUCAGCAUUCAGACUCAGGUGCUGAAGCUUCGUGCAC
# B8: hsa-mir-130a (structured_RNA)
# RNA: GGGAAUCAGUGAAUAAAGGAAGUACCCUGGUGUACGAAGUUUCAGCGCUACUGUCUGCACCUGUCACUAGCAGUGCUGAAGCUUCGUGCAC
# B9: hsa-mir-762 (structured_RNA)
# RNA: GGGAAAUCACCGUCUCAACCCCGGUUCGGGUGUACGAAGUUUCAGCUCCGGCCGGCCAUGCUGGCGGGGGCUGAAGCUUCGUGCAC
# B10: hsa-mir-4638 (structured_RNA)
# RNA: GGGAAAUGACCCUUGGACGUGCACAUUAGGUGUACGAAGUUUCAGCAAGUCCGGCUCCAGAACCUGGACACCGCUCAGGCUGAAGCUUCGUGCAC
# B11: hsa-mir-6791 (structured_RNA)
# RNA: GGGAAUCGAAGACUAGACACCACUCAAAGGUGUACGAAGUUUCAGCGGCUGGGCAGGCGGAAAGAGGUCUGAACUGCCUCUGCCGCUGAAGCUUCGUGCAC
# B12: hsa-mir-1296 (structured_RNA)
# RNA: GGGAAACCGAAGAUUAGGCCCUUGUUCGGGUGUACGAAGUUUCAGCAUCUCCUUUAGGAAAACCUUCUGUGGGGAGUGCUGAAGCUUCGUGCAC
# B13: hsa-mir-4731 (structured_RNA)
# RNA: GGGAAGGACCUGGAGCCUAUAGCCGAAUGGUGUACGAAGUUUCAGCAGUGUGCAGUCAUCCACACAGCUGAAGCUUCGUGCAC
# B14: hsa-mir-3913-2 (structured_RNA)
# RNA: GGGAUCAGCGUGUGGAGUCGUAAUUCACGGUGUACGAAGUUUCAGCGUCUGCCAAGGUUUUGGCAGACGCUGAAGCUUCGUGCAC
# B15: hsa-mir-4258 (structured_RNA)
# RNA: GGGAAUUACGCCCGGGUCCCAAUGGUUUGGUGUACGAAGUUUCAGCUGGAGGCUGACCUCUUACUUUCGGUCGGUCUUCUUGCUGAAGCUUCGUGCAC
# B16: hsa-mir-1302-5 (structured_RNA)
# RNA: GGGCUAAGUUGAUGAGUGACGAUACGACGGUGUACGAAGUUUCAGCCCAUGUAAUCUUUGGGCUGAAGCUUCGUGCAC
# B17: hsa-mir-1285-2 (structured_RNA)
# RNA: GGGACAGUUUGGCUGUCGCCUAGUGGAAGGUGUACGAAGUUUCAGCCAAUUUGAGACCAAUGCUGAAGCUUCGUGCAC
# B18: hsa-mir-6504 (structured_RNA)
# RNA: GGGACACCCUGAAGUACCAUGAGUCAUAGGUGUACGAAGUUUCAGCAAUGCAGUCUGCACCCUGCUGCAUUGCUGAAGCUUCGUGCAC
# B19: hsa-mir-548h-3 (structured_RNA)
# RNA: GGGAUAAGUAUGCCGAGGUCGACAACAAGGUGUACGAAGUUUCAGCUGUCAUUGAAAGUAAUAGCAGCUGAAGCUUCGUGCAC
# B20: hsa-mir-4473 (structured_RNA)
# RNA: GGGAACUAUCGUCGCCUGUUCCUGACCGGGUGUACGAAGUUUCAGCCUAAGCUAUGGACUGCUAUGGACUGCUAGGCUGAAGCUUCGUGCAC
# B21: hsa-mir-3158-1 (structured_RNA)
# RNA: GGGAGCAGACCCACAAUGAGUAUAACUGGGUGUACGAAGUUUCAGCCCUUCUGCUUACAGGUAUUGGAAGGGCUGAAGCUUCGUGCAC
# B22: hsa-mir-561 (structured_RNA)
# RNA: GGGACUUAUAGUGUCGCAAGAGCAACUGGGUGUACGAAGUUUCAGCUUUGCCAGAGCUACAAAGGCAAAGCUGAAGCUUCGUGCAC
# B23: hsa-mir-4743 (structured_RNA)
# RNA: GGGAAGCCUAGAUAAGCCGCCUCUAAUCGGUGUACGAAGUUUCAGCGGAGGCAUGAAUGAGCCAUCUUUCCAAUGCCUUUCGCUGAAGCUUCGUGCAC
# B24: hsa-mir-4787 (structured_RNA)
# RNA: GGGAACAUAUGUACGCUGGCGUUCACGAGGUGUACGAAGUUUCAGCCAUCCCGGACGGCCUGUGAGGGAUGGCUGAAGCUUCGUGCAC
# B25: hsa-mir-5006 (structured_RNA)
# RNA: GGGAAAUGCGGGUUGAAGCUACCUUAGCGGUGUACGAAGUUUCAGCGGAAGGGAGCCCCAUUUACAGUGGUAACUUCCUUUCCGCUGAAGCUUCGUGCAC
# B26: hsa-mir-4733 (structured_RNA)
# RNA: GGGAACAUAGUGCACCGUAACUCGUAGAGGUGUACGAAGUUUCAGCGGUGGCAAUCAAGGUCUAGCCACCGCUGAAGCUUCGUGCAC
# Key:
# Assay in all cases: FOREST: bead pull-down of RNA structure library v1, barcode microarray; U1A/LIN28A: 20 mM HEPES pH 7.5, 80 mM KCl, 20 mM NaCl, 10% glycerol, 2 mM DTT, 0.1 ug/uL BSA, 4 C; BG4/CIRBP/DHX36: 10 mM Tris-HCl pH 7.5, 100 mM KCl (or LiCl),; high values mean tight binding
# [1] = molecular target: T1, LIN28A
# [2] = molecular target: T2, CIRBP
# [3] = molecular target: T3, DHX36
Binder,binding signal [1] [z-score],binding signal [2] [z-score],binding signal [3] [z-score]
B1,-0.812,-0.519,0.187
B2,-0.785,-1.05,-0.587
B3,-0.763,-0.741,-0.941
B4,-0.76,-0.799,0.114
B5,-0.756,-0.456,-0.709
B6,-0.814,0.486,-0.313
B7,-0.796,0.199,-0.526
B8,-0.77,-0.0324,0.0712
B9,-0.792,0.519,-0.337
B10,-0.792,-0.556,-0.799
B11,-0.812,0.353,0.096
B12,-0.754,0.0157,-1.04
B13,-0.795,-0.099,-0.591
B14,-0.804,-0.988,-0.153
B15,-0.755,-0.533,-0.468
B16,-0.767,-0.535,0.795
B17,-0.763,-0.899,-0.159
B18,-0.806,0.603,0.536
B19,-0.752,-0.105,-0.175
B20,-0.775,-0.94,-1.99
B21,-0.752,-0.56,-1.59
B22,-0.806,-0.613,-1.71
B23,-0.779,-0.243,0.115
B24,-0.766,0.379,-0.513
B25,-0.763,-1.64,0.07
B26,-0.76,-2.89,-2.09
